The values that follow are results of earlier work, collected in patent publication US20250222108A1, “MEDICAL AGENT INCLUDING ADJUVANT AND COMPOSITE OF PHOTOSENSITIVE MOLECULE AND MOLECULE BINDING TO CANCER-SPECIFIC CELL SURFACE MOLECULE” (KYOTO UNIVERSITY, priority 2021, published 2025).

For this series, the system named is human dendritic cells. The conditions noted are these: FaDu cells treated and light-irradiated, co-cultured with dendritic cells, then polyI:C; versus control without light irradiation; cited from earlier work.

In the case of “cetuximab IRDye 700DX: cetuximab conjugated with IRDye 700DX, as described in Patent Literature 1”, the “CD80 expression level of human dendritic cells” value was “increased” and the “CD86 expression level of human dendritic cells” value is on record as “increased”.
